Experimental data taken from PubChem BioAssay AID524 (The Scripps Research Institute Molecular Screening Center, 2006).
This is a selection; strong and weak results do not stand in their true shares. The source made the active and inactive calls.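 How the source made its calls: active means inhibition above the screen-wide mean inhibition plus 3 SD (cut at about 21% in these data); inactive means the rest.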

These compounds were tested against cAMP-dependent protein kinase catalytic subunit alpha (Homo sapiens) (UniProt P17612) (assay: inhibitors of human PKA kinase activity, primary screen, biochemical, ATP-depletion luminescence, Kemptide substrate (AID 524)). Settings: PKA Kemptide phosphorylation, Kinase-Glo ATP luminescence; at 6 µM; stronger effect = higher value.

Q: `O=C(OC1CN2CCC1CC2)C12CC3CC(CC(C3)C1)C2` (stereo not given) was tested. Which inhibition did it give?
A: inactive: -5.2%

Q: Which inhibition does the source give for `O=C(COc1ccccc1)OC1CN2CCC1CC2` (stereo not given) here?
A: inactive: -0.5%

Q: With `COP1(=S)c2c(C)nn(CCC#N)c2N=C(c2ccc(F)cc2)N1C` (stereo not given) as the compound, how does the inhibition read?
A: inactive: 6.2%

Q: With `Clc1n[nH]nc1-c1nn[nH][15n]1` as the compound, how does the inhibition read?
A: inactive: -1.8%

Q: Which inhibition does the source give for `O=P1(Nc2ccccn2)COc2ccccc2OC1` here?
A: inactive: 5.3%

Q: Which inhibition does the source give for `Cc1nn(-c2ccccc2)c2c1P(=O)(N1CCOCC1)N(C)C(c1ccccc1)=N2` (stereo not given) here?
A: inactive: 8.5%

Q: Which inhibition does the source give for `O=P1(Nc2ccc(Br)cn2)COc2ccccc2OC1` here?
A: inactive: 9%

Q: Which inhibition does the source give for `Cc1ccc(OCC(=O)OC2CN3CCC2CC3)cc1` (stereo not given) here?
A: inactive: 5.3%

Q: How did the inhibition turn out when `O=P1(Nc2ncccn2)COc2ccccc2OC1` was run?
A: inactive: 3.6%

Q: For `CCOP1(=S)c2c(C)nn(CCC#N)c2N=C(c2ccccc2F)N1C` (stereo not given), which inhibition is on record?
A: inactive: 0%

Q: How did the inhibition turn out when `O=P(Nc1nccs1)(c1ccccc1)c1nc2ccccc2s1` (stereo not given) was run?
A: inactive: 3.5%

Q: Which inhibition does the source give for `CCOP1(=S)c2c(C)nn(CCC#N)c2N=C(c2ccc(F)cc2)N1C` (stereo not given) here?
A: inactive: 9.6%

Q: `Cc1cccc(OCC(=O)OC2CN3CCC2CC3)c1` (stereo not given) was tested. Which inhibition did it give?
A: inactive: 4.4%

Q: `O=P1(Nc2nc3ccc(Cl)cc3s2)COc2ccccc2O1` (stereo not given) was tested. Which inhibition did it give?
A: inactive: -6%

Q: For `COC(=O)c1cc2c(s1)N=C(c1ccccc1)N(C)P2(=O)N1CCOCC1` (stereo not given), which inhibition is on record?
A: inactive: 5.9%

Q: With `O=C(OC1CN2CCC1CC2)c1cccc(Cl)c1` (stereo not given) as the compound, how does the inhibition read?
A: inactive: -2.3%

Q: How did the inhibition turn out when `c1nnnn1CCn1cnnn1` was run?
A: inactive: 2.8%

Q: `O=P(Nc1nccs1)(c1ccccc1)c1ccccc1` was tested. Which inhibition did it give?
A: inactive: 7%

Q: How did the inhibition turn out when `CCc1nc2c(n1)c1c(non1O)c1c2no[n+]1[O-]` was run?
A: inactive: 4.3%

Q: With `Cc1c2non([O-])c-2c(C)[n+](=O)[n+]1[O-]` as the compound, how does the inhibition read?
A: inactive: 12.7%
